For this test, the target named is T1, GFP-tagged ATG13/101 subcomplex (UniProt O75143 1-517; Q9BSB4 1-218).
T1 construct: ATG13; ATG101; source: FreeStyle HEK293F cells, transfected, purified (glutathione beads, TEV cleavage, SEC); not shown: GST, N-terminal, cleaved; GFP, N-terminal, kept
T1 sequence (looked up) 1: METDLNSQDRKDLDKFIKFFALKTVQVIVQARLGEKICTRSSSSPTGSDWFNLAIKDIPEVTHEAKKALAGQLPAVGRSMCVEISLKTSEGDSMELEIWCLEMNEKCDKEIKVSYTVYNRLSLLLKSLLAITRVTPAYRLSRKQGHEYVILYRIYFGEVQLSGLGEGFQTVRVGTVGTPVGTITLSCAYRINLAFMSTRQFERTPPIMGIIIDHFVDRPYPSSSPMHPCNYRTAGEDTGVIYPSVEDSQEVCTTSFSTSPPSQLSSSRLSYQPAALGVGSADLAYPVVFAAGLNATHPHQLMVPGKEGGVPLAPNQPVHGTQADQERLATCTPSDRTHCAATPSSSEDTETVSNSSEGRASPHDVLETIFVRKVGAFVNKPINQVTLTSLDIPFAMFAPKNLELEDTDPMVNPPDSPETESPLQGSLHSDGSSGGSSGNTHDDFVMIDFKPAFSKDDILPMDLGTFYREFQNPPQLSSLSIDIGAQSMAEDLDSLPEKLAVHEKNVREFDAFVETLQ
T1 sequence (looked up) 2: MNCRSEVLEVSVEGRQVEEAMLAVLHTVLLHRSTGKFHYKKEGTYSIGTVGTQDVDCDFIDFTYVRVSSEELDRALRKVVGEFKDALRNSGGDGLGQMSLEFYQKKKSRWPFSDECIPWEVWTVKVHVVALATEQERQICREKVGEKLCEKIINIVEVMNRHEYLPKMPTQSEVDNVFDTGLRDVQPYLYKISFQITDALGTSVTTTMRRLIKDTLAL
As to the kind of experiment: microscopy-based bead assay; GFP-trap agarose beads coated with GFP-tagged bait (ULK1 complex, ATG13/101, FIP200, ULK1 K46I, ATG13 IDR and its fragments or variants; 5 uM), mCherry-tagged WIPI proteins as prey; 25 mM Tris-HCl pH 7.4, 150 mM NaCl, 1 mM DTT; confocal imaging. The settings on record: both partners purified.

B1: mCherry-WIPI3 (natural protein)
chain: not shown
notes: also called mCherry-tagged WIPI3; source: E. coli Rosetta pLysS, purified (His-Trap, SEC); not shown: mCherry, N-terminal, kept
For the molecule B1, the binding result is on record as “binds”.

(Values after doi:10.1101/2024.08.28.609967, “Reconstitution of BNIP3/NIX-mediated autophagy reveals two pathways and hierarchical flexibility of the initiation machinery” (bioRxiv, 2024).)
